Tested on: brain galactocerebroside (GalCer)
Test: Fractional synthesis of myelin (deuterium incorporation into galactocerebroside)
Settings: during cuprizone treatment

Substance: cuprizone
- synthesis of galactocerebroside (GalCer) in the brain: suppress synthesis
- fractional synthesis of GalCer (deuterated water for last 3 weeks, control 12% new in 3 weeks): about 5 % new
